The subject of series [1] is PBMCs. The series is described as follows: Expansion of PBMC cultures with ZA/IL-2. In kind it is cell-based, human. The note with it: 14 days, 1 μM ZA. How it is done: The effect of ZA/IL-2 on proliferation of PBMC cultures was assessed in vitro. PBMCs were harvested from healthy human donors and cultures were treated with a single dose of ZA. IL-2 was added every 3-4 days. Specifically, PBMC derived from 3 different healthy human donors (#1, #2, #3) were cultured in RPMI medium (1×10^6 cells/ml) for 14 days with 1 μM ZA plus high (300 U/ml) or low (25 U/ml) doses of IL-2; cf. FIG. 8a. PBMCs of the same donors were cultured additionally in RPMI medium for 14 days with 300 U/ml IL-2 plus ZA or without ZA; cf. FIG. 8b. Increase in cell numbers was determined by counting living cells on day 6, 8, 11 and 14.

The subject of series [2] is PBMCs. Kind of series: Composition of PBMC cultures (NK cells, Vγ9Vδ2 T cells) by multicolor FACS. In kind it is cell-based, human. Conditions: 10 donors, 14 days, 300 U/ml IL-2 with or w/o 1 μM ZA. The procedure:
Growth and differentiation of specific cell types in PBMC cultures depends on presence of cytokines. These components are either added to the medium (e.g. growth factors present in the serum, IL-2) or secreted by the immune cells themselves. Which type of cells evolves also depends on the initial composition of the PBMCs and on genetic endowments. To analyze the overall increase in effector cells (NK cells and Vγ9Vδ2 T cells) PBMCs of 10 different donors were grown in the presence of 300 U/ml IL-2 and with or w/o 1 μM ZA for 14 days. The amount of effector cells within the lymphocyte population was identified by multicolor FACS staining using CD3, CD16, CD56, Vγ9 and V62 antibodies. CD3-CD56+CD16+ cells represent NK cells and CD3+Vγ9+Vδ2+ represent Vγ9Vδ2 T cells.

Series [3] concerns CLS-103~cldn18.2 allograft tumors. Kind of series: Combination of IMAB362 and EOF on CLS-103~cldn18.2 allograft tumors. Further details: species or system NMRI mice. Conditions: mouse, in vivo. The procedure: CLS-103˜cldn18.2 allograft tumors were inoculated by injection of 1×10^6 CLS-103˜cldn18.2 cells subcutaneous into the flank of 10 NMRI mice for each treatment group. […] IL-2 was administered semi-weekly by subcutaneous injection of 3000 IE. […] Tumor size and animal health were monitored semi-weekly. Mice were sacrificed, when tumor reached a volume of 1400 mm^3 or tumors became ulcerous.

The test system of the next series is Vγ9Vδ2 T cells. Kind of series: IL-2 dose response on Vγ9Vδ2 T cells in ZA supplemented PBMC cultures. The format is cell-based, human. How it is done: PBMCs were cultivated for 14 days in RPMI medium supplemented with 1 μM ZA and increasing IL-2 concentrations. IL-2 was added on day 0 and day 4. The enrichment of CD16+Vγ9+Vδ2+ T cells within the CD3+ lymphocyte population was determined by multicolor FACS staining on day 0 and day 14. To compare the different donors, the amount of CD16+Vγ9+Vδ2+ T cells harvested after cultivation with 600 U/ml IL-2 was set to 100%; cf. FIG. 10, left. Furthermore, ADCC activity of the isolated cultures grown for 14 days in increasing concentrations of IL-2 was tested; cf. FIG. 10, right.

The next series has as its system NUGC-4 xenografts. Kind of series: Biodistribution of Dyelight 680-labeled antibodies in NUGC-4 xenografted nude mice. Conditions: live imaging.

Take “IL-2: Interleukin-2, a type of cytokine signaling molecule in the immune system”: the “expanded cells, high dose (300 U/ml) versus low dose (25 U/ml) IL-2” value in the series with PBMCs [1] was 2-5 fold. In the series on PBMCs [2], the “cell type developing in PBMC cultures” value was “mainly NK cells develop”. For the same substance, the “tumor growth inhibition compared to saline control group” value in series [3] is reported as “no effect”. Moreover, the “ADCC activity of cells grown in higher IL-2 concentrations compared to low” value in the series with Vγ9Vδ2 T cells (150-600 U/ml IL-2) is reported as “improved”. Moreover, the “growth and survival of the Vγ9Vδ2 T cell subset” value in the series with Vγ9Vδ2 T cells (dose response analysis, 1 μM ZA, 14 days) was “stimulates growth and survival”.

For “Trastuzumab: antibody targeting HER2/neu, Dyelight 680-labeled positive control”, the “retention of labeled antibody signal 120 hours after injection” value with NUGC-4 xenografts is “rapidly washed out”.

The record behind these values is US20180258180A1, “COMBINATION THERAPY INVOLVING ANTIBODIES AGAINST CLAUDIN 18.2 FOR TREATMENT OF CANCER” (Ganymed Pharmaceuticals AG, priority 2012, published 2018).
